Experiments:
[1] = biological target: T1, Lysophosphatidic acid receptor 1 (Homo sapiens, UniProt Q92633); experiment: Inhibition of LPA-induced calcium transients in RH7777 rat hepatoma cells expressing LPA1 receptor; type: functional, cell-based
Method in brief: (§1)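 Fura-2 Ca2+ assay. RH7777 cells stably expressing LPA1, LPA2 or LPA3, or PC-3 cells (endogenous LPA1-3), seeded at 50000 cells/well on poly-D-lysine and grown overnight. Serum-starved in modified Krebs, pH 7.4, for 6-8 h (PC-3: 12 h), then Fura-2 AM loaded for 35 min. Compound added at 15 s; wells read 80-120 s. Transient taken as peak minus baseline 340/380 ratio. Antagonism: LPA 18:1 coapplied; highest concentration 30 μM.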

By UniProt entry, the sequences of proteins in these tests, tags left out. Where a name states a change or a piece, a line headed by the entry shows the natural chain unless it says otherwise.
UniProt Q92633: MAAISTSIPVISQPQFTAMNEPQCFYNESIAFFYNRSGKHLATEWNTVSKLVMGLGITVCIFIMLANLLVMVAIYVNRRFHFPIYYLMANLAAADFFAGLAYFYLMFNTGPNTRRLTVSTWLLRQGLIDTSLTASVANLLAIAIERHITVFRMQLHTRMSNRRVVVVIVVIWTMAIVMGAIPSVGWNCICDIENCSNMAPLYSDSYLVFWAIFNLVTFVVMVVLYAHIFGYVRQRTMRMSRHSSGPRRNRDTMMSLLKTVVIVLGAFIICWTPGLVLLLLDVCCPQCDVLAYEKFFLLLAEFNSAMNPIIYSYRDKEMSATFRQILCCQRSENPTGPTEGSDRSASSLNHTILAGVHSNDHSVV

[2] = biological target: T1, Lysophosphatidic acid receptor 1; experiment: Binding affinity for Lysophosphatidic acid receptor 1 expressed in RH7777 rat hepatoma cells; type: cell-based; method in brief: as §1

CCCC/C=C/CCCCCCCCOP(=O)(O)O
IC50 [1]: 3 µM | Ki [2]: 1.15 µM

CC/C=C/CCCCCCCCCCOP(=O)(O)O
IC50 [1]: 2.2 µM | Ki [2]: 0.457 µM

Source: ChEMBL document CHEMBL1140336, “Synthesis, structure-activity relationships, and biological evaluation of fatty alcohol phosphates as lysophosphatidic acid receptor ligands, activators of PPARgamma, and inhibitors of autotaxin” (J Med Chem, 2005)
